# Measured values as given in publication PMC3758308, “The Respiratory Arsenite Oxidase: Structure and the Role of Residues Surrounding the Rieske Cluster” (2013).
# By UniProt entry, the sequences of proteins in these tests, tags left out. Where a name states a change or a piece, a line headed by the entry shows the natural chain unless it says otherwise.
# UniProt Q6VAL8: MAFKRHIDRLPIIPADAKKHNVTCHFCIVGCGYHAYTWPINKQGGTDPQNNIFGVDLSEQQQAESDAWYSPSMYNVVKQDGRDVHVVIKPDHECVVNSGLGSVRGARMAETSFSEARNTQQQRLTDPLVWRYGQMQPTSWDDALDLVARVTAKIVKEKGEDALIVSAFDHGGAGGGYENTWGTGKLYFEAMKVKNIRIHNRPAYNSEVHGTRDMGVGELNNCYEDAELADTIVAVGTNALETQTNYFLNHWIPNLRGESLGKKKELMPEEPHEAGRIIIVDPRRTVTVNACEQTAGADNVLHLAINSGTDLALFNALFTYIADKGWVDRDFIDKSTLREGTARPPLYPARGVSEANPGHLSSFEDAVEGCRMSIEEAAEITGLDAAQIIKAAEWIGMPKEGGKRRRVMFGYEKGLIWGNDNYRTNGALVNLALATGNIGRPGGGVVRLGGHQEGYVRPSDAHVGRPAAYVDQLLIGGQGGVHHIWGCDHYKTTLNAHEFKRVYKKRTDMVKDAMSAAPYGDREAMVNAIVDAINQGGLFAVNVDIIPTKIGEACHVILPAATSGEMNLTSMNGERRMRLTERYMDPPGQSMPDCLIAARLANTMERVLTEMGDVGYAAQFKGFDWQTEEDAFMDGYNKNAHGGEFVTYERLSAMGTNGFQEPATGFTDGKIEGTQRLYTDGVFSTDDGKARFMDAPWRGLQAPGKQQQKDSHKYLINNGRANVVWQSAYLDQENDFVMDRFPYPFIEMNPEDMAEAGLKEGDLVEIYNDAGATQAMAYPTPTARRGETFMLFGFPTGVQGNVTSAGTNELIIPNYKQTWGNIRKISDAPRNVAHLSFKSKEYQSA
# Target: NT-26 Aio (recombinant arsenite oxidase, AioBA) (Pseudorhizobium banfieldiae, UniProt Q6VAL8)
# Experiment: DCPIP reduction assay
# Conditions: DCPIP as artificial electron acceptor; 50 mM MES pH 5.5; 25°C
structure (smiles),measurement,value
O[As](O)O,Km,68 µM
